{"source": "patent US20050221459A1", "molecular_target": "Rat GGTase-I β subunit (rat) (UniProt P53610)", "experiment": "X-ray crystal structure of rat GGTase-I", "data": [{"substance": "Rat GGTase-I α subunit (from UniProt Q04631 1-377) (enzyme)", "values": [{"measurement": "interface between the α and β subunits", "value": "> 3300", "unit": "Å^2"}]}]}
